Compound activity as filed in PubChem.
E-selectin induc – induces E-selectin expression in human endothelial cells. HUVEC E-selectin immunofluorescence imaging; normalized: neutral wells 0, TNF-alpha wells 100. activation, % at 7.58 µM. 260,000 compounds, 0.37% hits. AID 686992;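 active means mean E-selectin-positive cell signal at least 10% of the positive control, reached in at least 60% of replicates, without over 20% cell loss; inconclusive means no rule given, readout overlaps actives, possibly toxicity-flagged; inactive means the rest, including those meeting only one limit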
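Material: HUVEC primary endothelial cells; Amount: 3,000 cells per well; Dosing: single concentration; Medium: EGM-2 growth medium on 0.1% gelatin-coated wells; Read-out basis: percent E-selectin-positive cells; Signal: immunofluorescence imaging; Control set: TNF-alpha, DMSO.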
esBAF inh – blocks esBAF chromatin remodeling in mouse ES cells; Bmi1-luciferase knock-in reporter, 24 h; 100% = twice the neutral-well signal; reporter increase, % at 12.5 µM; 350,000 compounds, 2% hits; AID 602393; in the data active means activation above about 40%; inconclusive means no clear call, values can overlap the other calls;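 further: 0% = median of the plate's neutral control wells and 100% = double that signal; a rise in the Bmi1 reporter signal indicates esBAF inhibition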
Statin myotox sup – protects C2C12 myotubes from simvastatin toxicity | ATP luminescence, 48 h; scaled: DMSO 0, geranylgeraniol control 100 | rescue of ATP level, % at 7.49 µM | 330,000 compounds, 0.78% hits;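 active means mean ATP rescue above about 67%, or every replicate alone reaching that limit, limit read from the data, passing the limit was not always enough; inconclusive means no clear call, values can overlap the other calls; inactive means mean under the limit and some replicate under it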;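 further: myotubes were challenged with 10 µM simvastatin during compound exposure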
PglD DTNB – PglD (C. jejuni) enzyme inhibition. 360,000 compounds, 0.098% hits. inhibition, % at 12.5 µM. purified PglD enzyme, DTNB colorimetric CoA detection; in the data active means inhibition above about 16%, passing the limit was not always enough; inconclusive means no clear call, values can overlap the other calls
PGC1a acetyl inh – lowers PGC1a acetylation signal in U2OS cells. AlphaScreen anti-acetyl-lysine; with virally co-expressed GCN5 acetyltransferase. AID 651687. inhibition, % at 15.6 µM. 350,000 compounds, 0.17% hits;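 active means every replicate shows inhibition of at least 40%; inconclusive means mean inhibition at least 40% but some replicate below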;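 further: 0% = neutral control wells and 100% = positive control wells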
Yeast UUG start – modulators of start codon recognition fidelity in yeast; AID 602363; activity score, % at 18.7 µM; S. cerevisiae UUG-firefly luciferase reporter, luminescence/redox ratio; 0.13% of 350,000 active;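 active = replicate mean at a twofold rise or more, about +100% in these data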;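 note: firefly luciferase made from a UUG start codon reports start codon fidelity; reporter light over untreated wells divided by growth signal over untreated wells; some hits fall short of that in this replicate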
* = called active by the depositor; ? = inconclusive; . = no result. Shown are actives, neighbours in structure and some others; about 2.8% of the full set was active somewhere.

nr	compound	E-selectin induc	esBAF inh	Statin myotox sup
1	Cc1cccc(-c2csc(N)c2C(=O)OC(C)C)c1	2	-1	116*
2	COCCNC(=O)c1ccc(-c2cn[nH]c2)c2ccoc12	0	-7	1
3	O=C(NCc1ccccc1)c1ccc(-c2cn[nH]c2)c2ccoc12	0	57*	-7
4	Cc1noc(C)c1NC(=O)NCC[C@@H]1CC[C@@H](NC(=O)Cc2cccnc2)[C@@H](CO)O1	-1	5	11
5	O=C(CN(C(=O)CCC(=O)Nc1ccccn1)c1ccc2c(c1)OCCO2)NCCc1ccccc1	.	1	100*
6	CC(C)CCNC(=O)CN(C(=O)CCC(=O)Nc1ccccn1)c1ccc2c(c1)OCCO2	.	-1	9
7	CC(C)NC(=O)Nc1ccc2c(c1)C(=O)N([C@@H](C)CO)C[C@@H](C)[C@H](CN(C)C(=O)NC1CCCCC1)OCCCC[C@H](C)O2	0	6	.
8	Cn1c(=O)n(Cc2ccccc2)c(=O)c2c1nc1n2CCCN1Cc1ccccc1	.	10	116*
9	C[C@H](CO)N1C[C@H](C)[C@H](CN(C)Cc2ccncc2)Oc2ccc(NS(=O)(=O)c3ccccc3)cc2CC1=O	0	2	-11
10	CC(C)NC(=O)N(C)C[C@@H]1Oc2ccc(NS(=O)(=O)c3cccs3)cc2CC(=O)N([C@@H](C)CO)C[C@H]1C	29*	-1	9
11	C[C@@H]1CN([C@H](C)CO)C(=O)Cc2cc(NC(=O)Nc3cccc4ccccc34)ccc2O[C@@H]1CN(C)S(=O)(=O)c1cccs1	4	-2	75*
12	Cc1ccc(S(=O)(=O)Nc2ccc3c(c2)CC(=O)N([C@@H](C)CO)C[C@H](C)[C@@H](CN(C)S(=O)(=O)c2cccs2)O3)cc1	0	4	77*

nr	PglD DTNB	PGC1a acetyl inh	Yeast UUG start
1	0	-12	-14
2	2	8	-10
3	-1	16	-17
4	2	-5	3
5	3	1	-19
6	-4	6	-6
7	0	11	.
8	0	-4	-10
9	1	0	-12
10	1	3	-15
11	0	8	6
12	5	-17	15

nr	compound	E-selectin induc	esBAF inh	Statin myotox sup
13	Cc1ccc(S(=O)(=O)Nc2ccc3c(c2)CC(=O)N([C@@H](C)CO)C[C@H](C)[C@H](CN(C)S(=O)(=O)c2cccs2)O3)cc1	0	4	?
14	Cc1ccc(S(=O)(=O)Nc2ccc3c(c2)C(=O)N([C@@H](C)CO)C[C@@H](C)[C@@H](CN(C)S(=O)(=O)c2cccs2)O3)cc1	0	-4	0
15	Cc1ccc(S(=O)(=O)Nc2ccc3c(c2)C(=O)N([C@@H](C)CO)C[C@@H](C)[C@H](CN(C)S(=O)(=O)c2cccs2)O3)cc1	0	0	100*
16	COc1ccc(S(=O)(=O)N(C)C[C@@H]2Oc3ccc(NS(=O)(=O)c4ccc(F)cc4)cc3C(=O)N([C@@H](C)CO)C[C@@H]2C)cc1	0	2	22
17	Cc1noc(C)c1S(=O)(=O)Nc1ccc2c(c1)C(=O)N([C@H](C)CO)C[C@@H](C)[C@@H](CN(C)C(=O)Nc1ccc(F)cc1)OCCCC[C@@H](C)O2	0	3	.
18	N#Cc1ccc(-c2cccnc2)nc1SCC(=O)c1ccccc1	.	63*	-39
19	N#Cc1ccc(-c2ccccc2)nc1SCC(=O)c1cccc(Cl)c1	.	.	.
20	COC(=O)c1ccc(NC(=O)CSc2nc3ccccc3c(=O)[nH]2)cc1	.	3	-5
21	CCC(Sc1nc2ccccc2c(=O)[nH]1)C(=O)Nc1ccc(C(C)=O)cc1 (stereo not drawn)	.	70*	-5
22	CCO[C@@H]1OC(C(=O)N2CCN(Cc3ccc4c(c3)OCO4)CC2)=C[C@H](c2ccccc2)[C@H]1CCCO	.	.	.
23	Cn1ccc(-c2ccccc2)n1	1	12	5
24	CNc1ccccc1-n1ccc(-c2ccccc2)n1	.	60*	-4
25	NNCCc1ccccc1	0	63*	-17
26	CCCNC(=O)N(C)C[C@@H]1Oc2ncc(Br)cc2C(=O)N([C@@H](C)CO)C[C@@H]1C	0	-2	7

nr	PglD DTNB	PGC1a acetyl inh	Yeast UUG start
13	4	-3	-1
14	-3	-3	5
15	1	-1	1
16	2	-9	3
17	0	9	5
18	3	2	-11
19	3	-10	-22
20	5	6	-4
21	-3	-3	-12
22	0	-26	13
23	-2	.	-10
24	-7	0	-10
25	-2	14	-3
26	0	5	.

Gathered by group: the entries above with a cyano group.
nr	compound	E-selectin induc	esBAF inh	Statin myotox sup
18	N#Cc1ccc(-c2cccnc2)nc1SCC(=O)c1ccccc1	.	63*	-39
19	N#Cc1ccc(-c2ccccc2)nc1SCC(=O)c1cccc(Cl)c1	.	.	.

nr	PglD DTNB	PGC1a acetyl inh	Yeast UUG start
18	3	2	-11
19	3	-10	-22
